Measured values: ChEMBL document CHEMBL1127015, “Centrally acting serotonergic and dopaminergic agents. 1. Synthesis and structure-activity relationships of 2,3,3a,4,5,9b-hexahydro-1H-benz[e]indole derivatives” (J Med Chem, 1993)

By UniProt entry, the sequences of proteins in these tests, tags left out.
UniProt P08908, whole entry: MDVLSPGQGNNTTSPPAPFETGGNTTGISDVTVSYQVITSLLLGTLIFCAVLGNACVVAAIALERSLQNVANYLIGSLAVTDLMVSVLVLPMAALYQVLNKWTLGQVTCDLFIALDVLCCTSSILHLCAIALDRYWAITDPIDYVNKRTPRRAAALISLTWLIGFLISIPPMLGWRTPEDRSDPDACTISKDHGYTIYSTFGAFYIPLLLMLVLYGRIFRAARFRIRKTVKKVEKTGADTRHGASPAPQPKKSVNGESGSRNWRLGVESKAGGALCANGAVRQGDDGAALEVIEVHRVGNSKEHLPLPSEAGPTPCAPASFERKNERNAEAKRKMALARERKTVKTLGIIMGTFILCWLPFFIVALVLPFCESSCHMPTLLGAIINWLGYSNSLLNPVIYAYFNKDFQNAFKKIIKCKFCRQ
UniProt P61169, whole entry: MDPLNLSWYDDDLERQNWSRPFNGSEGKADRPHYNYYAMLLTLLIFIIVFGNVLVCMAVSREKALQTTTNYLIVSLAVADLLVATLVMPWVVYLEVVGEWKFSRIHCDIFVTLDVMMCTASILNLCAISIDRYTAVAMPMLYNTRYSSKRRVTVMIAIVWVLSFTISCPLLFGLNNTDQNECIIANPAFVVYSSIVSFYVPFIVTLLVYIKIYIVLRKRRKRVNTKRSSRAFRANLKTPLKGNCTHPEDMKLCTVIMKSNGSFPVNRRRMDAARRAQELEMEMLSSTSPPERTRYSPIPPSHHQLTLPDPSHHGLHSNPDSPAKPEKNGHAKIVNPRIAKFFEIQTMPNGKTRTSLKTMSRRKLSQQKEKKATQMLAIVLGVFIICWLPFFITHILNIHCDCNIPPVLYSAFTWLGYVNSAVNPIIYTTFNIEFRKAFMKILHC

Experiments:
[1] = molecular target: 5-hydroxytryptamine receptor 1A (Homo sapiens, UniProt P08908)
D(2) dopamine receptor [2] = molecular target: T1, D(2) dopamine receptor (Rattus norvegicus, UniProt P61169); assay: Compound was evaluated for the binding affinity against [3H]U-86,170-labeled dopamine receptor D2 in rat striatum; type: tissue-based
D(2) dopamine receptor [3] = molecular target: T1, D(2) dopamine receptor; assay: Inhibitory concentration against [3H]raclopride-labeled dopamine receptor D2 in rat striatum; type: tissue-based
D(2) dopamine receptor [4] = molecular target: T1, D(2) dopamine receptor; assay: Binding affinity against [3H]raclopride-labeled dopamine receptor D2 in rat striatum.; type: tissue-based

| Compound | Ki (D(2) dopamine receptor [4]) [nM] | other results |
| --- | --- | --- |
| COc1cccc2c1C1CCN(CCc3ccccc3)[C@@H]1CC2 (stereo partly specified) |  | Ki [1]: > 442 nM |
| C=CCN1CC[C@H]2c3c(cccc3OC)CC[C@H]21 (racemic) |  | Ki (D(2) dopamine receptor [2]): 7 nM; IC50 (D(2) dopamine receptor [3]): > 1000 nM |
| C=CCN1CC[C@@H]2c3c(cccc3OC)CC[C@H]21 (racemic) | 13 |  |
| C=CCN1CCC2c3c(cccc3OC)CC[C@@H]21 (single isomer, unassigned; (+)) | 270 |  |
| C=CCN1CCC2c3c(cccc3OC)CC[C@H]21 (single isomer, unassigned; (-)) | 5.3 |  |
